Tests used:
[1] = biological target: PfMyoA (full length Plasmodium falciparum myosin A heavy chain WT with bound light chains PfELC and PfMTIP) (Plasmodium falciparum) (UniProt Q8IDR3)
[2] = biological target: PfMyoA (full length Plasmodium falciparum myosin A heavy chain WT with bound light chains PfELC and PfMTIP) (Plasmodium falciparum) (UniProt Q8IDR3); remark: listed apart in the source
[3] = biological target: PfMyoA (full length Plasmodium falciparum myosin A heavy chain WT with bound light chains PfELC and PfMTIP) (Plasmodium falciparum) (UniProt Q8IDR3); test: count of fluorescent actin filaments on surface-immobilized myosin (in vitro motility assay); as a1 but in the presence of KNX-002 (200 µM in the results, 100 µM in the methods)
[4] = biological target: PfMyoA (full length Plasmodium falciparum myosin A heavy chain WT with bound light chains PfELC and PfMTIP) (Plasmodium falciparum) (UniProt Q8IDR3); test: count of fluorescent actin filaments on surface-immobilized myosin (in vitro motility assay); PfMyoA on a neutravidin / biotinylated BSA surface, rhodamine-phalloidin actin applied; 25 mM imidazole pH 7.5, 150 mM KCl, 4 mM MgCl2, 1 mM EGTA, 10 mM DTT, 0.15% methylcellulose, 2 mM MgATP, 1% DMSO; without KNX-002

Q: How did the in vitro motility assay: speed of actin filaments moved by surface-bound PfMyoA, in the absence of KNX-002 [1] turn out when “Skeletal muscle actin (chicken), filaments (from UniProt P68139 1-377) (natural protein)” was run?
A: 3.33 µm/s

Q: And the actin-activated ATPase of PfMyoA (5 nM PfMyoA, 50 µM skeletal actin, 30 °C), in the absence of inhibitor [2]?
A: 84.2 s⁻¹

Q: And the actin-activated ATPase of PfMyoA (5 nM PfMyoA, 50 µM skeletal actin, 30 °C), in the presence of 100 µM KNX-002 [2]?
A: 9.6 s⁻¹

Q: And the actin filaments bound per field (with KNX-002) (filaments/field) [3]?
A: 6.5

Q: What about the actin filaments bound per field (filaments/field) [4] of the same substance?
A: 110

Source: paper PMC10261046, “Mechanism of small molecule inhibition of Plasmodium falciparum myosin A informs antimalarial drug design” (Nature Communications, 2023)
